From ChEMBL document CHEMBL6103610, “ONC201-Derived Tetrahydropyridopyrimidindiones as Powerful ClpP Protease Activators to Tackle Diffuse Midline Glioma” (J Med Chem, 2025)
The source made the active and inactive calls. The rule behind the calls is not given here.

Chains of the proteins cited; added tags and fusions are not shown.
UniProt Q16740, whole entry: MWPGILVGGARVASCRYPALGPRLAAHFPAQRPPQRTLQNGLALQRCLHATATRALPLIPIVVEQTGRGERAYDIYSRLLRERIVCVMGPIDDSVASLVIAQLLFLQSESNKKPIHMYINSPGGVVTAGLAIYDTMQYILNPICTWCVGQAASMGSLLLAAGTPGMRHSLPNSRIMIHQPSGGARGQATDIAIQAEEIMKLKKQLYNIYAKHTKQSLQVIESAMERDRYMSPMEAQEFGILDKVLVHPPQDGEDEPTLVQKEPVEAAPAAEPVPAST

What was measured:
[1] = molecular target: T1, ATP-dependent Clp protease proteolytic subunit, mitochondrial (Homo sapiens, UniProt Q16740); experiment: Activation of human ClpP using FITC-casein as substrate assessed as increase in proteolytic activity at 100 uM preincubated for 15 mins followed by substrate addition and measured after 60 mins by fluorescence based analysis relative to ONC201; settings: filed as activator, time 75.0 min
[2] = molecular target: T1, ATP-dependent Clp protease proteolytic subunit, mitochondrial; experiment: Activation of human ClpP in human SU-DIPG-XXXVI cells assessed as induction of ClpX displacement from peptidase component by measuring decrease in ClpX protein level by Western blot analysis; type: cell-based; settings: filed as activator
[3] = molecular target: T1, ATP-dependent Clp protease proteolytic subunit, mitochondrial; experiment: Activation of human ClpP in human SU-DIPG-XXXVI cells assessed as decrease in NRF1 level incubated for 24 hrs by Western blot analysis; type: cell-based; settings: filed as activator
[4] = molecular target: T1, ATP-dependent Clp protease proteolytic subunit, mitochondrial; experiment: Activation of human ClpP in human SU-DIPG-XXXVI cells assessed as decrease in mitochondrial respiratory chain complex II subunit SDHA level by Western blot analysis; type: cell-based; settings: filed as activator
[5] = molecular target: T1, ATP-dependent Clp protease proteolytic subunit, mitochondrial; experiment: Activation of human ClpP in human SU-DIPG-XXXVI cells assessed as decrease in mitochondrial respiratory chain complex V subunit ATP5A level by Western blot analysis; type: cell-based; settings: filed as activator
[6] = molecular target: T1, ATP-dependent Clp protease proteolytic subunit, mitochondrial; experiment: Activation of human ClpP in human SU-DIPG-XXXVI cells assessed as decrease in mitochondrial DNA complex IV subunit COI level by Western blot analysis; type: cell-based; settings: filed as activator
[7] = molecular target: T1, ATP-dependent Clp protease proteolytic subunit, mitochondrial; experiment: Activation of human ClpP in human SU-DIPG-XXXVI cells assessed as decrease in TFAM level incubated for 24 hrs by Western blot analysis; type: cell-based; settings: filed as activator

SMILES | Activity [1] | other results
N#Cc1cccc(CN2CCc3[nH]c(=O)n(Cc4ccc(C(F)(F)F)cc4)c(=O)c3C2)c1 | 100% | 
O=c1[nH]c2c(c(=O)n1Cc1ccc(C(F)(F)F)cc1)CN(Cc1cccc([N+](=O)[O-])c1)CC2 | 84% | 
N#Cc1cccc(CN2CCc3[nH]c(=O)n(Cc4ccc(SC(F)(F)F)cc4)c(=O)c3C2)c1 | 76% | 
N#Cc1cccc(CN2CCc3[nH]c(=O)n(Cc4ccc(Cl)c(Cl)c4)c(=O)c3C2)c1 | 97% | Activity [2]: Active; Activity [3]: Active; Significant Effect Observed; Activity [4]: Active; Activity [5]: Active; Activity [6]: Active; Activity [7]: Active; Marked Reduction Observed
COc1ccc(Cn2c(=O)[nH]c3c(c2=O)CN(Cc2cccc(C#N)c2)CC3)c(OC)c1 | 76% | 
N#Cc1cccc(CN2CCc3[nH]c(=O)n(Cc4cc(C(F)(F)F)cc(C(F)(F)F)c4)c(=O)c3C2)c1 | 44% | 
N#Cc1cccc(CN2CCc3[nH]c(=O)n(Cc4cc(C(F)(F)F)ccc4Cl)c(=O)c3C2)c1 | 93% | 
COc1cccc(CN2CCc3[nH]c(=O)n(Cc4ccc(C(F)(F)F)cc4)c(=O)c3C2)c1 | 71% | 
Cc1ccc(Cn2c(=O)[nH]c3c(c2=O)CN(Cc2cccc(C#N)c2)CC3)cc1 | 71% | 
N#Cc1cccc(CN2CCc3[nH]c(=O)n(Cc4ccc([N+](=O)[O-])cc4)c(=O)c3C2)c1 | 87% | 
N#Cc1cccc(CN2CCc3[nH]c(=O)n(Cc4ccc(Cl)cc4)c(=O)c3C2)c1 | 90% | 
O=c1[nH]c2c(c(=O)n1Cc1ccc(C(F)(F)F)cc1)CN(Cc1cccc(C(F)(F)F)c1)CC2 | 96% | 
O=c1[nH]c2c(c(=O)n1Cc1ccc(C(F)(F)F)cc1)CN(Cc1cccc(Cl)c1)CC2 | 100% | 
